{"sequences": {"note": "Chains of the proteins cited; added tags and fusions are not shown. Residues count along the entry.", "UniProt P08183, whole entry": "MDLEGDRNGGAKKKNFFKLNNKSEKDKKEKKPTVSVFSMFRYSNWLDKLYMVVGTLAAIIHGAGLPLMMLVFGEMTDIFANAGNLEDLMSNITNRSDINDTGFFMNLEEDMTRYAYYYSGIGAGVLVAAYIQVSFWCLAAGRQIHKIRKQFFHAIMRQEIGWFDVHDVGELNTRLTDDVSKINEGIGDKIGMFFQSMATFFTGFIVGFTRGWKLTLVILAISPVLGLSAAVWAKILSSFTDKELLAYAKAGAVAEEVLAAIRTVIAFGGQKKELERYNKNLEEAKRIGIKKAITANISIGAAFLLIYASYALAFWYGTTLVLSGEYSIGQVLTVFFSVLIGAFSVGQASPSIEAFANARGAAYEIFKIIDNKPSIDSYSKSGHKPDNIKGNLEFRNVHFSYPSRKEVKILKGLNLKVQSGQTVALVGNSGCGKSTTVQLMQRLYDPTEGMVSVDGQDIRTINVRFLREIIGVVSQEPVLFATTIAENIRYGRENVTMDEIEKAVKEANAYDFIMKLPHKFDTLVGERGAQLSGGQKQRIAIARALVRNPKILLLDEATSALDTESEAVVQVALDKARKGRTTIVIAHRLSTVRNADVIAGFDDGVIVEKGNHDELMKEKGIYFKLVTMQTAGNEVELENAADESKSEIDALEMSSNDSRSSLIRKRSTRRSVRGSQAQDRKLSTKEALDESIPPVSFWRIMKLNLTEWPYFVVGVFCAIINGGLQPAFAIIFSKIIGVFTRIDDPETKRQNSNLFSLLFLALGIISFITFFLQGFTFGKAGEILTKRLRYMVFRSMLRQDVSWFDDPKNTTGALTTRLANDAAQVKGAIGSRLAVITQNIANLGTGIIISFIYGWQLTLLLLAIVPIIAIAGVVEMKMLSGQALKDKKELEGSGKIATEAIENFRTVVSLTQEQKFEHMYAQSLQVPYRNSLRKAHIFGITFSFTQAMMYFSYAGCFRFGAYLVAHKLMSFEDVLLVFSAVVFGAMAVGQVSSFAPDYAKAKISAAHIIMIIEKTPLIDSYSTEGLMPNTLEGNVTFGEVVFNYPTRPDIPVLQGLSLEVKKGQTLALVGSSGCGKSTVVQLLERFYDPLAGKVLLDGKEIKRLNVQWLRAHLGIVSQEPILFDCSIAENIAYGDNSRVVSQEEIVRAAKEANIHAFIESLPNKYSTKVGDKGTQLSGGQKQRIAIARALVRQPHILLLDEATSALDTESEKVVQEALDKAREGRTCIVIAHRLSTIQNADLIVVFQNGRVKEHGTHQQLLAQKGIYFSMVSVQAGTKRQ", "UniProt P56817, 46-501": "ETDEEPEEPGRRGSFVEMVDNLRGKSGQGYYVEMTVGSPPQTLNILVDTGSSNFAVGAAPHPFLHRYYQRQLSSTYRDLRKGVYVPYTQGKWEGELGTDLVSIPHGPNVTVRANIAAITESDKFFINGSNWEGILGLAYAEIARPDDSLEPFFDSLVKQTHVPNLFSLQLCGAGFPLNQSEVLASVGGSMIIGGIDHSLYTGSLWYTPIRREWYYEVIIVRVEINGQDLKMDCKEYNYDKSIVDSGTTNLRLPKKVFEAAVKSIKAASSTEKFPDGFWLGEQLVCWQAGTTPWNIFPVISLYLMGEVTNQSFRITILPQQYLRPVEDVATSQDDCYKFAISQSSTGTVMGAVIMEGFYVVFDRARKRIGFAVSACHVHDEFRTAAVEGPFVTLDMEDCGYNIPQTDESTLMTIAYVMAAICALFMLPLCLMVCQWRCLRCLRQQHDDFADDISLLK"}, "source": "patent US20190055231A1", "about": "“BACE1 INHIBITORS” (Hoffmann-La Roche Inc., priority 2016, published 2019)", "key": {"[1]": {"target": "P-gp (Homo sapiens, UniProt P08183)", "assay": "P-gp transport assay (human)", "type": "in vitro ADME", "conditions": "not told, read-out: higher P-gp efflux ratio than example 1", "from_the_text": "P-Gp Transport Assay (Human and Mouse) (P-Gp Assay)\nIn the assay of the P-gp efflux ratio ER as described hereinabove, a compound with ER<2.5 is regarded most suitable. In addition, compounds with low hERG channel binding are suitable as well."}, "[2]": {"target": "T1, BACE1 (Homo sapiens, UniProt P56817)", "assay": "BACE1 cell-free assay (BACE1 enzyme assay)", "type": "biochemical", "from_the_text": "BACE1 Cell-Free Assay (BACE1 Enzyme Assay)\nThe determination of BACE1 activity can be either measured by using an enzymatic cell-free fluorescence assay (BACE1 cell free, table 2) or by a whole cell assay using HEK293 APP cells (Cellular Aβ-lowering, table 2). Both assays are suitable to determine BACE1 inhibition."}, "[3]": {"target": "T2, BACE2 (Homo sapiens, UniProt Q9Y5Z0)", "T2 sequence (Q9Y5Z0 63-518)": "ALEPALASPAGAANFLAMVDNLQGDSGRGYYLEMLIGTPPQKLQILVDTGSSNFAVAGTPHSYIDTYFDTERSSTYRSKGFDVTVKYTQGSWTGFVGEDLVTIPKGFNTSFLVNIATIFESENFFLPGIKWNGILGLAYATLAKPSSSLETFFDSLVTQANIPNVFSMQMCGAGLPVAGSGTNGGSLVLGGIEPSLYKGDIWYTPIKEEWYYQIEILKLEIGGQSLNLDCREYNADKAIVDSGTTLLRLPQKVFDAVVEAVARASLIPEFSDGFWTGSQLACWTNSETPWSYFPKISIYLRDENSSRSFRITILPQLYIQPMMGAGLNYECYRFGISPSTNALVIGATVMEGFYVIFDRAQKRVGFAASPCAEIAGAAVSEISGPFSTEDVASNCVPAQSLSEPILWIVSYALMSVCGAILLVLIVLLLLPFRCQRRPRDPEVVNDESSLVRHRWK", "assay": "BACE2 cell-free assay (BACE2 enzyme assay)", "type": "biochemical", "conditions": "BACE2 IC50 divided by BACE1 IC50, cell free assays", "from_the_text": "BACE2 Cell-Free Assay (BACE2 Enzyme Assay)\nSelectivity versus related targets is important in terms of safety of a drug candidate. BACE2 is a close homolog of BACE1. BACE2 was recently reported to play a crucial role in pigmentation of the skin by processing pigment cell-specific melanocyte protein (PMEL). (Proc Natl Acad Sci USA. 2013 Jun. 25; 110(26):10658-63. doi: 10.1073/pnas.1220748110. Epub 2013 Jun. 10). It is believed that PMEL contributes in melanogenesis. Therefore, selectivity versus BACE2 is advantageous when it comes to pigmentation of the skin. The selectivity ratio of BACE2/BACE1 IC50 was calculated by dividing the BACE2 IC50 value by the BACE1 IC50 value determined each in the cell free assay. […] This implies a 3-fold improvement of example 1 compared to comparators 4 and 5."}, "[4]": {"target": "T1, BACE1", "assay": "Cellular Aβ-lowering assay (Abeta 40 AlphaLISA, HEK293 APP cells)", "type": "cell-based", "set-up": "endogenous in cells; host or cells: HEK293 APP cells", "conditions": "Aβ40 in supernatant, read-out: BACE1 cell act. Aβ40 IC50", "description": "Cellular Aβ-Lowering Assay:\nThe Abeta 40 AlphaLISA Assay can be used. The HEK293 APP cells were seeded in 96 well Microtiter plates in cell culture medium (Iscove's, plus 10% (v/v) fetal bovine serum, penicillin/streptomycin) to about 80% confluency and the compounds were added at a 3× concentration in ⅓ volume of culture medium (final DMSO concentration was kept at 1% v/v). After 18-20 hrs incubation at 37° C. and 5% CO2 in a humidified incubator, the culture supernatants were harvested for the determination of AP 40 concentrations using Perkin-Elmer Human Amyloid beta 1-40 (high specificity) Kit (Cat#AL275C).\nIn a Perkin-Elmer White Optiplate-384 (Cat#6007290), 2 ul culture supernatants were combined with 2 μl of a 10× AlphaLISA Anti-hAP Acceptor beads+Biotinylated Antibody Anti-Aβ 1-40 Mix (50 μg/mL/5 nM). […] Light Emission at 615 nm was then recorded using EnVision-Alpha Reader. Levels of AP 40 in the culture supernatants were calculated as percentage of maximum signal (cells treated with 1% DMSO without inhibitor). The IC50 value were calculated using the Excel XLfit software. […]\nThe determination of BACE1 activity can be either measured by using an enzymatic cell-free fluorescence assay (BACE1 cell free, table 2) or by a whole cell assay using HEK293 APP cells (Cellular Aβ-lowering, table 2). […]"}}, "data": [{"compound": "Cc1cc(C#N)cnc1C(=O)Nc1ccc(F)c([C@]2(C)C[C@@H](C(F)(F)F)OC(N)=N2)n1", "note": "[Comparator 5]", "values": [{"measurement": "efflux ratio", "setting": "[1]", "value": 2}, {"measurement": "IC50", "setting": "[2]", "value": 39, "unit": "nM"}, {"measurement": "BACE2/BACE1 IC50 ratio", "setting": "[3]", "value": 0.6}, {"measurement": "IC50", "setting": "[4]", "value": 4, "unit": "nM"}]}]}
